Each compound was assayed against human norepinephrine reuptake transporter (Homo sapiens, UniProt P23975) (assay: cell-based). Settings: Human IC50 (nM) hNET.

Sequences of proteins named here, by UniProt entry; tags and fusion partners are left off.
UniProt P23975, whole entry: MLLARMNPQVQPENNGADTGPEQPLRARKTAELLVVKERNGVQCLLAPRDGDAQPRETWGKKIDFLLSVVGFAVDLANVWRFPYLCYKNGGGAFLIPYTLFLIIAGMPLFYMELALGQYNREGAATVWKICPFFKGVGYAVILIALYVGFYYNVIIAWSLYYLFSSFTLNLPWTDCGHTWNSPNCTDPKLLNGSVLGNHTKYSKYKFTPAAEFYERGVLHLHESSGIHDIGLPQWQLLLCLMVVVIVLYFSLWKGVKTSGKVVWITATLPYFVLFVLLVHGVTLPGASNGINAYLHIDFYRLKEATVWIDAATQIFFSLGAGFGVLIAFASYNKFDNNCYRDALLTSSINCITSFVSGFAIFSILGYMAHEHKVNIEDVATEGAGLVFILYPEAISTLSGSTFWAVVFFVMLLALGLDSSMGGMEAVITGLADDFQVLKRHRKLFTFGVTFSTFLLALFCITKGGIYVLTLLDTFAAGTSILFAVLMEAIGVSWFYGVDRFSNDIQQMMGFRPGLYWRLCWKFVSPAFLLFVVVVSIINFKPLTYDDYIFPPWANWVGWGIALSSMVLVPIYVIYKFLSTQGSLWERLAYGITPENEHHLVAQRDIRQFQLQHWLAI
UniProt P31645, whole entry: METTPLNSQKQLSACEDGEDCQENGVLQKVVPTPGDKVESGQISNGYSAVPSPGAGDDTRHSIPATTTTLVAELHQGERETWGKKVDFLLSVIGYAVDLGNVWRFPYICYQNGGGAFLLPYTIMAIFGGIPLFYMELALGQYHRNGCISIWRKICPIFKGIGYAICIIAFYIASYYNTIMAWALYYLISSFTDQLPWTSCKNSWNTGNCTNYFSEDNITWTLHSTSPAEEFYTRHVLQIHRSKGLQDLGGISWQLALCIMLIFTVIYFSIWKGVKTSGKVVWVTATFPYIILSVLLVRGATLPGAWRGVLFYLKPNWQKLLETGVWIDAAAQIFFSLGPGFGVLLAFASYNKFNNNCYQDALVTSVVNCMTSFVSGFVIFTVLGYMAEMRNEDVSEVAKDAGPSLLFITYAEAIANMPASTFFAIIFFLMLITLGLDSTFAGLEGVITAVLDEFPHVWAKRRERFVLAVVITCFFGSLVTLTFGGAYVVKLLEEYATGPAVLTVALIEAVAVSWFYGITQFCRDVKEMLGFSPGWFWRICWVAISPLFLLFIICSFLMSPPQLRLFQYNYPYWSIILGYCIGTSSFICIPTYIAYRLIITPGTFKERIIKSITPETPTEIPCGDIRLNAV
UniProt Q01959, whole entry: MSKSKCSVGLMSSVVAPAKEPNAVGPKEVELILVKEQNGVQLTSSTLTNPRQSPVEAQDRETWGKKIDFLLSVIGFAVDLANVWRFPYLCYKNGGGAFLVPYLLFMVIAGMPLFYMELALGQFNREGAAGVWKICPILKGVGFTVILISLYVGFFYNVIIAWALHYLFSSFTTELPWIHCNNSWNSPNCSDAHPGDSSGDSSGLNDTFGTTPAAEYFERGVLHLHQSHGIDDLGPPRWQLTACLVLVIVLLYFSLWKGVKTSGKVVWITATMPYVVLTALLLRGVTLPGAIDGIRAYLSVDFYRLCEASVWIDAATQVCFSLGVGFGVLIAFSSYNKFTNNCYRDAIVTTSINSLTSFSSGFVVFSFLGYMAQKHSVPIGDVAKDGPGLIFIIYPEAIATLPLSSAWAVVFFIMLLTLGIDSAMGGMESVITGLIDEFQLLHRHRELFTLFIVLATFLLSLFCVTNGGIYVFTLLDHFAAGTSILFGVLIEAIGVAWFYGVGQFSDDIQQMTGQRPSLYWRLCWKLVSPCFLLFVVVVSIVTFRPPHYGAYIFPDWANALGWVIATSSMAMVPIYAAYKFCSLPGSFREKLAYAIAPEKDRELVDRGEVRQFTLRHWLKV

| Structure (SMILES) | IC50 [nM] |
| --- | --- |
| CNC(C)C1(c2ccc(OC(F)(F)F)cc2)CCCCC1 (single isomer, unassigned) [64 E2, N-methyl-1-(1-(4-(trifluoromethoxy)phenyl)cyclohexyl)ethanamine] | 2650 |
| CNC(C)C1(c2cccc3ccccc23)CCCCC1 (single isomer, unassigned) [59 E1, N-methyl-1-(1-(naphthalen-1-yl)cyclohexyl)ethanamine] | 486 |
| CNC(C)C1(c2ccc(OC(F)(F)F)cc2)CCCCC1 (single isomer, unassigned) [64 E1, N-methyl-1-(1-(4-(trifluoromethoxy)phenyl)cyclohexyl)ethanamine] | 2800 |
| CN(C)CC1(c2ccc(Cl)c(Cl)c2)CCCC(F)(F)C1 (single isomer, unassigned) [206 E2, 1-(1-(3,4-dichlorophenyl)-3,3-difluorocyclohexyl)-N,N-dimethylmethanamine] | 7 |
| CNC(C)C1(c2cccc3ccccc23)CCCCC1 (single isomer, unassigned) [59 E2, N-methyl-1-(1-(naphthalen-1-yl)cyclohexyl)ethanamine] | 2200 |
| CC(C)CC(N)C1(c2ccc(Cl)c(Cl)c2)CCCCC1 (racemic) [Compound 3, 1-(1-(3,4-dichlorophenyl)cyclohexyl)-3-methylbutan-1-amine] | 888 |

Same assay, conditions: read-out: Human IC50 (nM) hNET

| Structure (SMILES) | IC50 [nM] |
| --- | --- |
| CN(C)CC1(c2ccc3ccccc3c2)CCC(O)CC1 (centres unmarked) [Compound 229, 4-((dimethylamino)methyl)-4-(naphthalen-2-yl)cyclohexanol] | 33 |
| CNCC1(c2ccc3ccccc3c2)CCC(C)(O)CC1 (centres unmarked) [Compound 223, 1-methyl-4-((methylamino)methyl)-4-(naphthalen-2-yl)cyclohexanol] | 145 |
| CNCC1(c2ccc3ccccc3c2)CCC(C)(O)CC1 (centres unmarked) [Compound 222, 1-methyl-4-((methylamino)methyl)-4-(naphthalen-2-yl)-cyclohexanol] | 5350 |
| CN(C)CC1(c2ccc3ccccc3c2)CCC(O)CC1 (centres unmarked) [Compound 228, 4-((dimethylamino)methyl)-4-(naphthalen-2-yl)cyclohexanol] | 387 |

Same assay, conditions: recombinant human norepinephrine transporter (NET); read-out: Human IC50 (nM) hNET

| Structure (SMILES) | IC50 [nM] |
| --- | --- |
| CNC(C(C)C)C1(c2ccc(Cl)cc2)CCCCC1 (racemic) [Compound 54, 1-(1-(4-chlorophenyl)cyclohexyl)-N,2-dimethylpropan-1-amine] | 857 |

These compounds were tested against human serotonin reuptake transporter (Homo sapiens, UniProt P31645) (assay: cell-based). Settings: Human IC50 (nM) hSERT.

| Structure (SMILES) | IC50 [nM] |
| --- | --- |
| CNC(CC(C)C)C1(c2ccc(Cl)c(Cl)c2)CCCCC1 (racemic) [Compound 45, 1-(1-(3,4-dichlorophenyl)cyclohexyl)-N,3-dimethylbutan-1-amine] | 5940 |
| CC(N(C)C)C1(c2ccc3ccccc3c2)CCCCC1 (racemic) [Compound 55, N,N-dimethyl-1-(1-(naphthalen-2-yl)cyclohexyl)ethanamine] | < 1 |
| CN(C)CC1(c2ccc(Cl)c(Cl)c2)CCCC(F)(F)C1 (single isomer, unassigned) [206 E2, 1-(1-(3,4-dichlorophenyl)-3,3-difluorocyclohexyl)-N,N-dimethylmethanamine] | 306 |
| CC(C)CC(N(C)C)C1(c2ccc(Cl)c(Cl)c2)CCCCC1 (racemic) [Compound 46, 1-(1-(3,4-dichlorophenyl)cyclohexyl)-N,N,3-trimethylbutan-1-amine] | > 10000 |
| CC(C)C(N)C1(c2ccc(Cl)cc2)CCCCC1 (racemic) [Compound 14, 1-(1-(4-chlorophenyl)cyclohexyl)-2-methylpropan-1-amine] | 2950 |

The compounds below were run against T1, human dopamine reuptake transporter (Homo sapiens, UniProt Q01959) (assay: cell-based). Settings: Human IC50 (nM) hDAT.
T1 construct: expressed in transfected cells; host or cells: CHO-K1 or HEK293

| Structure (SMILES) | IC50 [nM] |
| --- | --- |
| CC(C)CC(N)C1(c2ccc(Cl)cc2)CCCCC1 (single isomer, unassigned) [21 E1, 1-(1-(4-chlorophenyl)cyclohexyl)-3-methylbutan-1-amine] | 234 |
| CC(N)C1(c2ccc(-c3ccccc3)cc2)CCCCC1 (racemic) [Compound 7, 1-(1-(biphenyl-4-yl)cyclohexyl)ethanamine] | 527 |
| CNCC1(c2ccc(Cl)c(Cl)c2)CCCC(F)(F)C1 (single isomer, unassigned) [205 E1, 1-(1-(3,4-dichlorophenyl)-3,3-difluorocyclohexyl)-N-methylmethanamine] | 800 |
| CC(C)CC(N(C)C)C1(c2ccc(Cl)c(Cl)c2)CCCCC1 (racemic) [Compound 46, 1-(1-(3,4-dichlorophenyl)cyclohexyl)-N,N,3-trimethylbutan-1-amine] | 349 |

— patent publication EP1976513B1 (priority 2006, dated 2007)
